# The entries are a selection whose mix differs from that of the whole data set. Inconclusive results are not listed. Some structures show a salt or complex split into parts, the way the source records it. The source made the active and inactive calls. Calls come from the whole dose curve.
# Sequences of proteins named here, by UniProt entry; tags and fusion partners are left off.
# UniProt Q14974, whole entry: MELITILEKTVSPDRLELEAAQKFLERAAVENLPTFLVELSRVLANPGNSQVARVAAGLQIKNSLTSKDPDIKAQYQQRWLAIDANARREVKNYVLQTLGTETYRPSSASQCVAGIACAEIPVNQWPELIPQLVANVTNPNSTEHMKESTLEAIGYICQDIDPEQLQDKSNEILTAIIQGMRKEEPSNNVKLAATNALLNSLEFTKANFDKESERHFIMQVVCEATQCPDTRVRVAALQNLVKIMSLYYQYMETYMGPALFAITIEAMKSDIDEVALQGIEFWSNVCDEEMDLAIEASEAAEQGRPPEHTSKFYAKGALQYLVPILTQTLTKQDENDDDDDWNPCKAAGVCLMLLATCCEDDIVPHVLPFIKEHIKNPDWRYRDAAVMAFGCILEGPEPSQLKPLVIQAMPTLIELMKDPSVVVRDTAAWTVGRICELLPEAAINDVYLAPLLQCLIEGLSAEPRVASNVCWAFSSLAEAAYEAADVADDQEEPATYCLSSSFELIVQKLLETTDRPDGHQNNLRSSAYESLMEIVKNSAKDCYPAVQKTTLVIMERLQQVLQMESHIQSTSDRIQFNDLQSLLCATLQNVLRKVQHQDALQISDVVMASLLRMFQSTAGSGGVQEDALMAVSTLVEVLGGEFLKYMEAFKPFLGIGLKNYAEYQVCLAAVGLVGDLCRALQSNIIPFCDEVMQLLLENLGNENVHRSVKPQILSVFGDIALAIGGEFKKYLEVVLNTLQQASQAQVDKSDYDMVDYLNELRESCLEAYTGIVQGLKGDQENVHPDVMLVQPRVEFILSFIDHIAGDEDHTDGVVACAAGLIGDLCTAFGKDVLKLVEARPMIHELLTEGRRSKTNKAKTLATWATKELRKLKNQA
# UniProt O95149, whole entry partner: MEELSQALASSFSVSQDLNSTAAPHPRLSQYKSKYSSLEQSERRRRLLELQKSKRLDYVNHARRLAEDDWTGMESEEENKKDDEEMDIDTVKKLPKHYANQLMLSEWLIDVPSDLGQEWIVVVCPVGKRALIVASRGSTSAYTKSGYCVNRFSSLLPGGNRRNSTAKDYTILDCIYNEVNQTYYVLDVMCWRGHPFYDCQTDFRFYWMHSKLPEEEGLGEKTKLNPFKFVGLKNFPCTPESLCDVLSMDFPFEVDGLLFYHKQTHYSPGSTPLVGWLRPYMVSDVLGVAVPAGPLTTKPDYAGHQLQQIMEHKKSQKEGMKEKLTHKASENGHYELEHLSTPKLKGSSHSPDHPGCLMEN
# Target: Importin subunit beta-1 (Homo sapiens) (UniProt Q14974)
# Test: qHTS Assay for Inhibitors of Rango (Ran-regulated importin-beta cargo) - Importin beta complex formation;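 note: 0% = DMSO wells and 100% = buffer wells lacking importin beta; nearly all actives have a fitted effect of over 15% in size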
# Conditions: Rango CFP/YFP FRET sensor + importin beta, 45 min; at 92.2 µM (top of the series)
# From the text: NIH Molecular Libraries Probe Production Centers Network [MLPCN] NIH Chemical Genomics Center [NCGC] MLPCN Grant: R03 MH090808-01A1 Assay Submitter (PI): Petr Kalab NCGC Assay Overview: The small GTPase Ran regulates transport of macromolecules between the nucleus and the cytoplasm (nuclear transport) and has important functions in mitotic spindle assembly, nuclear envelope (NE) formation and nuclear pore complex (NPC) assembly. RanGTP gradient is thought to promote spindle assembly by providing a spatial clue to microtubule nucleation and Aurora A activation. Because the localized release and binding of importin alpha cargo relays this spatial clue to SAFs, inhibitors of the Rango - importin beta complex can then be used in further understanding their role in cell cycle specifically in mitosis progression. […] Activation of Aurora A has been linked to different types of cancer and a number of Aurora kinase inhibitors are being developed as potential canter therapeutics therefore, identified inhibitors of this complex could be developed into potential anti-mitotic probes for cancer treatment. Purified recombinant proteins Rango and importin beta were provided by the assay submitter. The assay used a fluorescence resonance energy transfer (FRET) Rango biosensor that contains the IBB of human snurportin 1 flanked by yellow fluorescent protein (EYFP) at the amino terminus and cerulean CFP10 at the carboxy terminus. […] Inhibitors will therefore be identified based on the ability to interfere with the FRET signal decrease. DMSO treated and no importin beta (buffer only) wells were used as negative and positive controls respectively. FRET readings were obtained at two time points. FRET reading prior to importin beta addition (pre-read) were used flag potential compound interference; FRET reading after importin beta addition (post-read) were used to identify inhibitors using the FRET ratio parameter.
# NCGC Assay Protocol Summary: Two and a half uL/well of Rango-buffer solution (50 nM Rango, 1x PBS, 1mM DTT, 0.02% Tween-20, 0.1% BSA final concentrations) was dispensed into 1536-well assay plates (Greiner, solid black medium-binding plates) with Aurora Discovery BioRAPTR Flying Reagent Dispenser (FRD; Beckton-Dickenson). Compound solution (23 nL) was transferred to the assay plate using Kalypsys pin tool equipped with a 1536-pin tool and incubated at room temperature for 5 min followed by a FRET pre-read using the PerkinElmer Envision plate reader. Two and a half uL/well of Importin beta - buffer solution (0.125 microM importin beta, 1x PBS, 1mM DTT, 0.02% Tween-20, 0.1% BSA final concentrations) were then added and incubated at room temperature giving a final reaction volume of 5uL. After 45min FRET post-read was obtained via the Envision plate reader using the same optics and settings as the pre-read (CFP/YFP optimized dual optical module D450/D505; excitation mirror CFP 430/24 nm; and emission filters CFP 486/10 nm and YFP 530/10 nm).
row,Compound,inhibition of complex formation
1,CCOC(=O)N1CCC(Nc2cccc(C)c2)CC1,inactive: 6.18%
2,COc1cc(C(=O)NCC2(N(C)C)CCCCC2)ccc1OC(F)F,inactive: -0.445%
3,CCOC(=O)N1CCC(Nc2ccc(F)cc2)CC1,inactive: 0.0234%
4,COc1ccc(NC2CCN(CCc3ccccc3)CC2)c(OC)c1,inactive: 1.64%
5,CCCCOc1ccc(C(=O)NCC2(N3CCOCC3)CCCCC2)cc1,inactive: 2.33%
6,O=P1(N(CCCl)CCCl)SCCCS1,inactive: -1.34%
7,O=C(NCC1(N2CCCCC2)CCCCC1)c1ccc(F)cc1,inactive: -2.38%
8,CCOc1ccc(C)cc1CN(CCCl)CCCl,inactive: 5.91%
9,CCOC(=O)N1CCC(Nc2ccc(OC)cc2)CC1,inactive: -0.132%
10,COc1ccc(Cl)cc1C(=O)NCC1(N2CCOCC2)CCCCC1,inactive: 0.297%
11,O=C1C(O)=C([N+](=O)[O-])C(=O)C(O)=C1[N+](=O)[O-],inactive: -0.722%
12,O=C(NCC1(N2CCCCC2)CCCCC1)c1ccc(Cl)s1,inactive: 3.21%
13,N#CC1(Nc2ccccc2)CCN(Cc2ccccc2)CC1,inactive: 5.72%
14,O=C(OC1CN2CCC1CC2)C1c2ccccc2Oc2ccccc21 (stereo not drawn),inactive: -3.13%
15,O=C(NCC1(N2CCOCC2)CCCCC1)c1cc2ccccc2o1,inactive: 2.58%
16,Cc1cc(C)cc(N(C(=O)c2ccccc2)C2CCN(C(=O)OC(C)(C)C)CC2)c1,inactive: 0.037%
17,O=C(NCC1(N2CCCCC2)CCCCC1)c1ccc(Cl)nc1,inactive: -2.13%
18,Cc1cccc(NC2(C#N)CCN(Cc3ccccc3)CC2)c1,inactive: -0.901%
19,CSc1ccccc1C(=O)NCC1(N2CCCCC2)CCCCC1,inactive: -5.98%
20,O=C(NCC1(N2CCCCC2)CCCCC1)c1cccs1,inactive: 1.47%
21,O=C(NCC1(N2CCCCC2)CCCCC1)c1ccc(=O)[nH]c1,inactive: -1.96%
22,COc1ccc(C(=O)NCC2(N3CCCCC3)CCCCC2)c(OC)c1OC,inactive: -4.05%
23,CC(C)(C)OC(=O)N1CCC(N(C(=O)c2ccccc2)c2ccc(F)cc2)CC1,inactive: 1.85%
24,COc1ccc(C(=O)NCC2(N3CCCCC3)CCCCC2)cc1,inactive: -14.1%
25,CCCOc1ccc(C(=O)NCC2(N(C)C)CCCCC2)cc1OC,inactive: 0.0479%
26,CN1CCC(Nc2cccc(F)c2)CC1,inactive: -2.71%
27,O=C(NCC1(N2CCCCC2)CCCCC1)c1cncc(Br)c1,inactive: 1.09%
28,COc1ccc2c(c1O)-c1c(O)c(OC)cc3c1[C@H](C2)[N+](C)(C)CC3.O=[N+]([O-])c1cc([N+](=O)[O-])c([O-])c([N+](=O)[O-])c1[O-],inactive: 3.73%
